Columns and labels:
[1] = Tissue distribution of radiolabeled (14C) Compound I after oral dose; assay type: in vivo, Long-Evans rats; conditions: as summarised in the description from the examples
Procedure: Radiolabeled (^14C) Compound I was also administered to Long-Evans rats at an oral dose of 5 mg/kg (100 μCi/kg). Plasma, liver, small intestine, cecum, kidney, lung, heart and skin tissue samples were collected up to 168 hours, and the amount of radioactive material at various time points was measured.

[2] = tested on: FXR-regulated, inflammatory and fibrosis gene expression in the liver; assay: Liver gene expression in NASH mouse model (RT-qPCR, RNA-seq); assay type: in vivo, C57/BL6J mice; conditions: NASH mice liver, 30 mg/kg

Cn1cc(C(=O)O)c2ccc(N3CCC(OCc4c(-c5c(Cl)cccc5Cl)noc4C4CC4)CC3)cc21 [Compound I, 6-{4-[5-cyclopropyl-3-(2,6-dichloro-phenyl)-isoxazol-4-ylmethoxy]-piperidin-1-yl}-1-methyl-1H-indole-3-carboxylic acid]
concentration in the liver relative to plasma, kidney, lungs, heart, and skin [1]: approximately 20 fold
BSEP expression (CPM) Relative to Vehicle [2]: 5.1
OST-B expression (CPM) Relative to Vehicle [2]: 135.7
SHP expression (CPM) Relative to Vehicle [2]: 4.6
